From US11401286B2 (Tetra Discovery Partners, LLC, priority 2012, dated 2022) come the findings set out here.

Where a name gives a salt, the structure may show the parent alone. Bounds are passed on as bounds.

This assay addresses human PDE4D7 containing UCR1 activating mutation S54D (PDE4D7*) (Homo sapiens (Human), UniProt Q08499, S129D). The assay can be described thus: biochemical.
The IC50 is the concentration that inhibits the measured activity by half. A lower IC50 goes with greater potency. With `CCc1c(C)nc(-c2ccc(Cl)s2)nc1Nc1ccc(Cc2nc(C(=O)OC)c[nH]2)cc1` [Example 305, Methyl 2-[[4-[[2-(5-chloro-2-thienyl)-5-ethyl-6-methyl-pyrimidin-4-yl]amino]phenyl]methyl]-1H-imidazole-4-carboxylate], the concentration for half-maximal inhibition (IC50) is under 1 µM.
As to `O=S1(=O)CCCc2nc(C3CCCC3)nc(Nc3ccc(CCO)cc3)c21` [Example 285, 2-Cyclopentyl-4-((4-(2-hydroxyethyl)phenyl)amino)-7,8-dihydro-6H-thiopyrano[3,2-d]pyrimidine 5,5-dioxide], the IC50 is under 1 µM.
The figure for `CCc1cc(Cc2ccc(CC(=O)O)cc2)nc(-c2cccc(Cl)c2)n1` [Example 66, 2-(4-((2-(3-chlorophenyl)-6-ethylpyrimidin-4-yl)methyl)phenyl)acetic acid] is under 1 µM; for `O=C(O)Cc1ccc(Nc2nc(-c3ccc(Cl)s3)nc(C3CC3)n2)cc1` [Example 34, 2-(4-(4-(5-chlorothiophen-2-yl)-6-cyclopropyl-1,3,5-triazin-2-ylamino)phenyl)acetic acid] it is over 1 µM; for `CCc1c(C)nc(-c2ccc(Cl)s2)nc1Nc1ccc(Cn2nccn2)cc1` [Example 300] it is under 1 µM.
The figure for `CCc1c(C)nc(-c2ccc(Cl)s2)nc1Nc1ccc(Cc2noc(=O)[nH]2)cc1` [Example 302, 3-[[4-[[2-(5-Chloro-2-thienyl)-5-ethyl-6-methyl-pyrimidin-4-yl]amino]phenyl]methyl]-4H-1,2,4-oxadiazol-5-one] is over 1 µM.
Regarding `O=S1(=O)CCCc2nc(C3CCCC3)nc(Nc3ccc(CCCO)cc3)c21` [Example 287, 2-Cyclopentyl-4-((4-(3-hydroxypropyl)phenyl)amino)-7,8-dihydro-6H-thiopyrano[3,2-d]pyrimidine 5,5-dioxide], the 50% inhibitory concentration (IC50) is under 1 µM.
For `CCc1c(C)nc(-c2ccc(Cl)s2)nc1Nc1ccc(CC(=O)NC)cc1` [Example 308, 2-[4-[[2-(5-Chloro-2-thienyl)-5-ethyl-6-methyl-pyrimidin-4-yl]amino]phenyl]-N-methyl-acetamide], the half-maximal inhibitory concentration (IC50) was under 1 µM.
The figure for `Clc1ccc(-c2nc3c(c(Nc4ccc(-c5nnn[nH]5)cc4)n2)CCC3)s1` [Example 77, 2-(5-Chloro-2-thienyl)-N-[4-(1H-tetrazol-5-yl)phenyl]-6,7-dihydro-5H-cyclopenta[d]pyrimidin-4-amine] is under 1 µM; for `Clc1ccc(-c2nc3c(c(Nc4ccc(Cc5nnn[nH]5)cc4)n2)CCC3)s1` [Example 74, 2-(5-Chloro-2-thienyl)-N-[4-(1H-tetrazol-5-ylmethyl)phenyl]-6,7-dihydro-5H-cyclopenta[d]pyrimidin-4-amine] it is under 1 µM.
The figure for `CCc1c(C)nc(-c2ccc(Cl)s2)nc1Nc1ccc(Cc2nnn[nH]2)cc1` [Example 73, 2-(5-Chloro-2-thienyl)-5-ethyl-6-methyl-N-[4-(1H-tetrazol-5-ylmethyl)phenyl]pyrimidin-4-amine] is under 1 µM; for `FC(F)(F)c1cc(Cc2ccc(Cn3cc(Cl)cn3)cc2)nc(-c2cccc(Cl)c2)n1` [Example 218, 4-(4-((4-Chloro-1H-pyrazol-1-yl)methyl)benzyl)-2-(3-chlorophenyl)-6-(trifluoromethyl)pyrimidine] it is under 1 µM.
The figure for `O=C(O)CCc1ccc(Nc2nc(-c3cccc(Cl)c3)nc3c2CCC3)cc1` [Example 16, 3-[4-[[2-(3-Chlorophenyl)-6,7-dihydro-5H-cyclopenta[d]pyrimidin-4-yl]amino]phenyl]propanoic acid] is under 1 µM; for `NC(=O)Cc1ccc(Nc2cc(-c3cccc(Cl)c3)nc3c2CCC3)cc1` [Example 3, 2-[4-[[2-(3-Chlorophenyl)-6,7-dihydro-5H-cyclopenta[b]pyridin-4-yl]amino]phenyl]acetamide] it is under 1 µM.
`CCc1cc(Cc2ccc(CC(N)=O)cc2)nc(-c2cccc(Cl)c2)n1` [Example 65, 2-(4-((2-(3-Chlorophenyl)-6-ethylpyrimidin-4-yl)methyl)phenyl)acetamide]: the IC50 is under 1 µM.
The figure for `OB1OCc2cc(Nc3nc(-c4cccc(Cl)c4)nc4c3CCC4)ccc21` [Example 294, 2-(3-Chlorophenyl)-N-(1-hydroxy-3H-2,1-benzoxaborol-5-yl)-6,7-dihydro-5H-cyclopenta[d]pyrimidin-4-amine] is over 1 µM; for `CCc1c(C)nc(-c2ccc(Cl)s2)nc1Nc1ccc2c(c1)COB2O` [Example 71, 2-(5-chloro-2-thienyl)-5-ethyl-N-(1-hydroxy-3H-2,1-benzoxaborol-5-yl)-6-methyl-pyrimidin-4-amine] it is under 1 µM.
In the case of `NC(C(=O)O)c1ccc(Nc2nc(-c3ccc(Cl)s3)nc3c2CCC3)cc1` (centres unmarked) [Example 12, 2-Amino-2-[4-[[2-(5-chloro-2-thienyl)-6,7-dihydro-5H-cyclopenta[d]pyrimidin-4-yl]amino]phenyl]acetic acid hydrochloride] it was over 1 µM; in that of `CCc1c(C)nc(-c2ccc(Cl)s2)nc1Nc1ccc(-c2nnn[nH]2)cc1` [Example 76, 2-(5-Chloro-2-thienyl)-5-ethyl-6-methyl-N-[4-(1H-tetrazol-5-yl)phenyl]pyrimidin-4-amine], under 1 µM.
On to `CCc1c(C)nc(-c2ccc(Cl)s2)nc1Nc1ccc(CC(=O)NC#N)cc1` [Example 301, 2-[4-[[2-(5-Chloro-2-thienyl)-5-ethyl-6-methyl-pyrimidin-4-yl]amino]phenyl]-N-cyano-acetamide], for which the IC50 is under 1 µM.
In the case of `CCc1nc(Nc2ccc(C(C)C(=O)O)cc2)nc(-c2cccc(Cl)c2)n1` (centres unmarked) [Example 59, 2-(4-(4-(3-chlorophenyl)-6-ethyl-1,3,5-triazin-2-ylamino)phenyl)propanoic acid] it was under 1 µM; in that of `NC(=O)Cc1ccc(Nc2nc(-c3cccc(Cl)c3)nc3c2CCCC3)cc1` [Example 234, 2-(4-((2-(3-Chlorophenyl)-5,6,7,8-tetrahydroquinazolin-4-yl)amino)phenyl)acetamide], under 1 µM.
As for `CCc1c(C)nc(-c2ccc(Cl)s2)nc1Nc1ccc2c(c1)B(O)OC2` [Example 72, 2-(5-Chloro-2-thienyl)-5-ethyl-N-(1-hydroxy-3H-2,1-benzoxaborol-6-yl)-6-methyl-pyrimidin-4-amine], the half-inhibitory concentration (IC50) was over 1 µM.
The figure for `CCc1nc(Nc2ccc(CC(N)=O)cc2)nc(-c2cccc(Cl)c2)n1` [Example 57, 2-(4-(4-(3-chlorophenyl)-6-ethyl-1,3,5-triazin-2-ylamino)phenyl)acetamide] is under 1 µM.
In the case of `COC(=O)Cc1ccc(Nc2nc(Cl)nc(-c3ccc(Cl)s3)n2)cc1` [Example 35, methyl 2-(4-((4-chloro-6-(5-chlorothiophen-2-yl)-1,3,5-triazin-2-yl)amino)phenyl)acetate] it was over 1 µM.
In the case of `CCc1c(C)nc(-c2ccc(Cl)s2)nc1Nc1ccc(B(O)O)cc1` [Example 292, [4-[[2-(5-Chloro-2-thienyl)-5-ethyl-6-methyl-pyrimidin-4-yl]amino]phenyl]boronic acid] it was under 1 µM; in that of `O=S1(=O)CCCc2nc(C3CCCC3)nc(Cc3ccc(CCO)cc3)c21` [Example 288, 2-Cyclopentyl-4-(4-(2-hydroxyethyl)benzyl)-7,8-dihydro-6H-thiopyrano[3,2-d]pyrimidine 5,5-dioxide], under 1 µM.
Take `CCc1nc(Nc2ccc(C(=O)O)cc2)nc(-c2cccc(Cl)c2)n1` [Example 40, 4-((4-(3-chlorophenyl)-6-ethyl-1,3,5-triazin-2-yl)amino)benzoic acid]: the IC50 is under 1 µM.
In the case of `OCCc1ccc(Nc2cc(-c3cccc(Cl)c3)nc3c2CCC3)cc1` [Example 6, 2-[4-[[2-(3-Chlorophenyl)-6,7-dihydro-5H-cyclopenta[b]pyridin-4-yl]amino]phenyl]ethanol] it was under 1 µM; in that of `Clc1cccc(-c2nc3c(c(Nc4ccc(Cc5nn[nH]n5)cc4)n2)SCCC3)c1` [Example 313, 2-(3-Chlorophenyl)-N-[4-(2H-tetrazol-5-ylmethyl)phenyl]-7,8-dihydro-6H-thiopyrano[3,2-d]pyrimidin-4-amine], under 1 µM.
In the case of `CCc1c(C)nc(-c2ccc(Cl)s2)nc1Nc1ccc2c(c1)CS(=O)(=O)C2` [Example 312, 2-(5-Chloro-2-thienyl)-N-(2,2-dioxo-1,3-dihydro-2-benzothiophen-5-yl)-5-ethyl-6-methyl-pyrimidin-4-amine] it was under 1 µM.
`OCC(O)c1ccc(Nc2cc(-c3cccc(Cl)c3)nc3c2CCC3)cc1` (centres unmarked) [Example 115, 1-(4-((2-(3-Chlorophenyl)-6,7-dihydro-5H-cyclopenta[b]pyridin-4-yl)amino)phenyl)ethane-1,2-diol hydrochloride] yielded a half-maximal inhibitory concentration (IC50) of under 1 µM.
The figure for `CCc1nc(Nc2ccc(C(N)=O)cc2)nc(-c2cccc(Cl)c2)n1` [Example 62, 4-(4-(3-chlorophenyl)-6-ethyl-1,3,5-triazin-2-ylamino)benzamide] is under 1 µM; for `OCCc1ccc(Nc2cc(C3CC3)nc(-c3cccc(Cl)c3)n2)nc1` [Example 214] it is under 1 µM.
In the case of `Clc1cccc(-c2nc3c(c(Nc4ccc(-c5nnn[nH]5)cc4)n2)CCC3)c1` [Example 75, 2-(3-Chlorophenyl)-N-[4-(1H-tetrazol-5-yl)phenyl]-6,7-dihydro-5H-cyclopenta[d]pyrimidin-4-amine] it was under 1 µM; in that of `CCc1c(C)nc(-c2ccc(Cl)s2)nc1Nc1ccc(C2=C(O)CCC2=O)cc1` [Example 303, 2-[4-[[2-(5-Chloro-2-thienyl)-5-ethyl-6-methyl-pyrimidin-4-yl]amino]phenyl]-3-hydroxy-cyclopent-2-en-1-one], over 1 µM.
The figure for `OCCc1ccc(Nc2nc(C3CCCC3)nc3c2SCCC3)cc1` [Example 283, 2-(4-((2-Cyclopentyl-7,8-dihydro-6H-thiopyrano[3,2-d]pyrimidin-4-yl)amino)phenyl)ethanol] is under 1 µM.
On to `CCc1nc(Nc2ccc(CCO)cc2)nc(-c2cccc(Cl)c2)n1` [Example 58, 2-(4-(4-(3-chlorophenyl)-6-ethyl-1,3,5-triazin-2-ylamino)phenyl)ethanol], for which the IC50 is under 1 µM.
